Assay results published in patent US8093251B2, “Nitrogen-containing heterocyclic compounds and thrombopoietin receptor activators” (Nissan Chemical Industries, Ltd., priority 2006, dated 2012).

Protein sequences, listed by entry. Tags and fused reporters are not part of them. Residues count along the entry.
UniProt P40238, 26-635 limits assumed: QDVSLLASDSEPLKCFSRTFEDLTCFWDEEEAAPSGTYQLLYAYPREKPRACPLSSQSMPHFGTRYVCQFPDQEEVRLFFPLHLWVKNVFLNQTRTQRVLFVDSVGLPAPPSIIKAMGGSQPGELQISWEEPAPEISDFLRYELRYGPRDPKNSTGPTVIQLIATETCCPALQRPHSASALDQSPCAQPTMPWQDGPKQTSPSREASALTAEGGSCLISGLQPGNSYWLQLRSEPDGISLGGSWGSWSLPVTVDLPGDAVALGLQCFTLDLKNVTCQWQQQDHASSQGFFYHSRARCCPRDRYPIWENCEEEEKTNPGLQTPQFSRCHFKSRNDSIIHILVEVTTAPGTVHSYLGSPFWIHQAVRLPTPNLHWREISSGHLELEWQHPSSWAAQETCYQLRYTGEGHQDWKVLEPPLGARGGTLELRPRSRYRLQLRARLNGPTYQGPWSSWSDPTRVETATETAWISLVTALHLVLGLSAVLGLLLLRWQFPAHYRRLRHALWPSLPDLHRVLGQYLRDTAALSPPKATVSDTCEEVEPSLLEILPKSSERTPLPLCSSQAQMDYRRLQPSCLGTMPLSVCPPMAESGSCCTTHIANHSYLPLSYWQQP

Biological target: human thrombopoietin receptor (c-mpl) (Homo sapiens, UniProt P40238)
Test: Stimulation of proliferation of thrombopoietin-dependent cell line UT7/EPO-mpl (WST-8)
Conditions: human leukemic cell line UT-7/EPO-mpl, 4 days incubation, WST-8, absorbance at 450 nm
Experimental: The responses of thrombopoietin receptor to the compounds of the present invention prepared in the Synthetic Examples were assayed using a human leukemic cell line, UT7/EPO-mpl.
UT7/EPO-mpl is a stable transformed cell line obtained by introducing into human leukemic cell line UT7/EPO a vector that induces expression of human thrombopoietin receptor (c-mpl) under control of cytomegalovirus immediate-early promoter by the method of Takatoku et al. (J. Biol. Chem., 272:7259-7263 (1997)). […] These two cell lines were subcultured in IMDM (GIBCO) containing 10% fetal bovine serum (Thermo Electron or BioWest) using a CO2 incubator (5% CO2, 37° C.).
The subcultured cells described above were washed twice with PBS and suspended in IMDM containing 10% fetal bovine serum at a cell density of 6×10^4 cells/ml. The cell suspension was transferred to a 96-well tissue culture plate (CORNING) in 100-μl aliquots. Then either thrombopoietin (Pepro Tech EC) or the compounds of the Synthetic Examples dissolved in dimethyl sulfoxide were diluted 83-fold with IMDM containing 10% fetal bovine serum and added to the aforementioned cell suspension in 20-μl aliquots. The cell suspension was incubated in a CO2 incubator (5% CO2, 37° C.) for 4 days. Cell proliferation was assayed using WST-8 reagent (Kishida Chemical Co., Ltd.) according to instructions by the manufacturer. A 10-μl aliquot of 5 mM WST-8 reagent solution was added to each well of the tissue culture plate, and the plate was incubated at 37° C. for 4 hours. The formazan pigment generated was detected by measuring the absorbance at 450 nm with a 96-well microplate reader (Nihon Molecular Devices, Spectramax 190).
The concentration of each compound that yields a growth rate corresponding to 50% of the growth of human leukemic cell line UT-7/EPO-mpl observed in the presence of 10 ng/mL TPO (EC50) in the test on the compounds of the Synthetic Examples in Assay Example 1 are shown in Table 8.

| Compound | EC50 (concentration that yields a growth rate corresponding to 50% of the growth observed in the presence of 10 ng/mL TPO) [ng/mL] |
| --- | --- |
| CC1=NN(c2ccc(C)c(C)c2)C(=O)C1=C(C)NNC(=S)N1CCC(C(=O)O)CC1 | 2.8 |
| COC(=O)C1CCN(C(=S)NNC(C)=C2C(=O)N(c3ccc(C)c(C)c3)N=C2C)CC1 | 31 |
| CC1=NN(c2ccc(Br)cc2)C(=O)C1=C(C)NNC(=S)N1CCC(C(=O)O)CC1 | 3.1 |
| CC1=NN(c2ccc(C(C)(C)C)cc2)C(=O)C1=C(C)NNC(=S)N1CCC(C(=O)O)CC1 | 2.8 |
| CC1=NN(c2ccc(C(C)(C)C)cc2)C(=O)C1=C(C)NNC(=S)N1CCN(CC(=O)O)CC1 | 3.4 |
| CC1=NN(c2ccc(Cl)c(Cl)c2)C(=O)C1=C(C)NNC(=S)N1CCC(C(=O)O)CC1 | 3.0 |
| CC1=NN(c2ccc(C(C)(C)C)cc2)C(=O)C1=C(C)NNC(=S)N1CCN(C(=O)C(=O)O)CC1 | 2.1 |
| CC1=NN(c2ccc(C(F)(F)F)cc2)C(=O)C1=C(C)NNC(=S)N1CCC(C(=O)O)CC1 | 2.9 |
